Measured values reported in US6126956A, “Subcutaneous implant” (priority 1998, dated 2000).

Experiments:
[1] = more potent than morphine; cited from earlier work
[2] = 600 μg and 1200 μg i.v. boluses

Q: For CN1CC[C@]23c4c5ccc(O)c4O[C@H]2C(=O)CC[C@H]3[C@H]1C5 [hydromorphone], which “potency relative to morphine” value [1] is on record?
A: 6-7 times

Q: What about the “time to return to baseline” value [2] of the same compound?
A: ≤ 4 h
